Source: paper PMC12163019 (Frontiers in Pharmacology, 2025)

By UniProt entry, the sequences of proteins in these tests, tags left out. Residues count along the entry.
UniProt P02768, 25-609 limits assumed: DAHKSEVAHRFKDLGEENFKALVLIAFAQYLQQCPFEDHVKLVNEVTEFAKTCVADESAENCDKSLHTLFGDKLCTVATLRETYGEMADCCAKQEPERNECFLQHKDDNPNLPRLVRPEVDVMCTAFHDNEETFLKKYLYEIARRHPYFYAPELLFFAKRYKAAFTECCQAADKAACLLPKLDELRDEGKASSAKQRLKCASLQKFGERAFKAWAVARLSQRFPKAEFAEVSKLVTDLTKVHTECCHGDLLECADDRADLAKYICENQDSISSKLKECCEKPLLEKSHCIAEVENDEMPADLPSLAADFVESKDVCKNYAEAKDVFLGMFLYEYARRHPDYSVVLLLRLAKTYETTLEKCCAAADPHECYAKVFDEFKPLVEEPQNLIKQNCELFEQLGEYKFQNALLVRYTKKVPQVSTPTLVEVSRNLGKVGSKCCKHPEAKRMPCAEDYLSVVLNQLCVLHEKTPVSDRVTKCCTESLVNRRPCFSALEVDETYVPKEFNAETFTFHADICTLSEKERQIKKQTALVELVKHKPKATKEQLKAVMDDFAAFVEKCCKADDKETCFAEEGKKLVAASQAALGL

Tests used:
TNFα = assay: Ex vivo whole-blood LPS stimulation, TNFα release; assay type: cell-based, human
IL-6 release = assay: In vitro human whole-blood assay, IL-6 release after resiquimod (R848) stimulation; details: read-out: IC50 for IL-6 release inhibition; mean and 95% CI
human serum albumin = human serum albumin (Homo sapiens, UniProt P02768)
rat splenic cells = details: ref Bothe et al., 2024; cited from earlier work
IL-1β = assay: Ex vivo whole-blood LPS stimulation, IL-1β release; assay type: cell-based, human; details: 24-h LPS 100 ng/mL
[1] = MAD study, single-dose period: plasma PK, fed; set-up: species or system human (healthy men); details: in vivo
[2] = MAD study, multiple-dose period: TEAEs, all events; assay type: in vivo, human (healthy men); details: 120 mg BID
IL-6 = assay: Ex vivo whole-blood LPS stimulation, IL-6 release; assay type: cell-based, human; details: 24-h LPS 100 ng/mL
IFN-γ = assay: Ex vivo whole-blood LPS stimulation, IFN-γ release; assay type: cell-based, human; details: 24-h LPS 100 ng/mL
[3] = test system: alpha-acid glycoprotein (AGP)

Compound: CC(C)(O)c1cc2nn(CCS(C)(=O)=O)cc2cc1NC(=O)c1cccc(C(F)(F)F)n1
- TNFα change from baseline 6 h post-dose (TNFα; 30 mg, 6-h LPS 0.1 ng/mL): -1155 pg/mL
- TNFα change from baseline 6 h post-dose (TNFα; 30 mg, 24-h LPS 100 ng/mL): 48 pg/mL
- TNFα change from baseline 6 h post-dose (TNFα; 120 mg, 6-h LPS 0.1 ng/mL): -418 pg/mL
- TNFα change from baseline 6 h post-dose (TNFα; 120 mg, 24-h LPS 100 ng/mL): -291 pg/mL
- TNFα change from baseline 6 h post-dose (TNFα; 480 mg split fed, 6-h LPS 0.1 ng/mL): -949 pg/mL
- TNFα change from baseline 6 h post-dose (TNFα; 480 mg split fed, 24-h LPS 100 ng/mL): -674 pg/mL
- TNFα change from baseline 6 h post-dose (TNFα; 480 mg, 6-h LPS 0.1 ng/mL): -238 pg/mL
- TNFα change from baseline 6 h post-dose (TNFα; 480 mg, 24-h LPS 100 ng/mL): -25 pg/mL
- return of TNFα levels (TNFα; 200-mg BID group): ≤ 72 h
- time for TNFα release to return to baseline after end of treatment (TNFα; MAD study): ≤ 3 days
- IC50 (IL-6 release): 86 nM
- Kd (human serum albumin): 178000 nM
- inhibition of TNFα secretion (rat splenic cells): strongly inhibits
- IL-1β change from baseline 6 h post-dose (IL-1β; 30 mg): -116 pg/mL
- IL-1β change from baseline 6 h post-dose (IL-1β; 120 mg): -513 pg/mL
- IL-1β change from baseline 6 h post-dose (IL-1β; 480 mg split fed): -698 pg/mL
- IL-1β change from baseline 6 h post-dose (IL-1β; 480 mg): -597 pg/mL
- AUC [1]: 6.74 (27.0) mg·h/L
- Cmax [1]: 0.251 (22.8) mg/L
- Infections and infestations [2]: 2 (25.0) n (%)
- IL-6 change from baseline 6 h post-dose (IL-6; 30 mg): -1357 pg/mL
- IL-6 change from baseline 6 h post-dose (IL-6; 120 mg): -3025 pg/mL
- IL-6 change from baseline 6 h post-dose (IL-6; 480 mg split fed): -2201 pg/mL
- IL-6 change from baseline 6 h post-dose (IL-6; 480 mg): -1285 pg/mL
- IFN-γ change from baseline 6 h post-dose (IFN-γ; 30 mg): -2037 pg/mL
- IFN-γ change from baseline 6 h post-dose (IFN-γ; 120 mg): -4628 pg/mL
- IFN-γ change from baseline 6 h post-dose (IFN-γ; 480 mg split fed): -13990 pg/mL
- IFN-γ change from baseline 6 h post-dose (IFN-γ; 480 mg): -2569 pg/mL
- Kd [3]: 400 nM
